Laboratory results taken from PMC9194530, “Interaction of Colchicine-Site Ligands With the Blood Cell-Specific Isotype of β-Tubulin—Notable Affinity for Benzimidazoles” (Frontiers in Cell and Developmental Biology, 2022).
Read-outs that look alike come from different tables or passages of the source.

Protein sequences, listed by entry. Tags and fused reporters are not part of them.
UniProt P09207, whole entry: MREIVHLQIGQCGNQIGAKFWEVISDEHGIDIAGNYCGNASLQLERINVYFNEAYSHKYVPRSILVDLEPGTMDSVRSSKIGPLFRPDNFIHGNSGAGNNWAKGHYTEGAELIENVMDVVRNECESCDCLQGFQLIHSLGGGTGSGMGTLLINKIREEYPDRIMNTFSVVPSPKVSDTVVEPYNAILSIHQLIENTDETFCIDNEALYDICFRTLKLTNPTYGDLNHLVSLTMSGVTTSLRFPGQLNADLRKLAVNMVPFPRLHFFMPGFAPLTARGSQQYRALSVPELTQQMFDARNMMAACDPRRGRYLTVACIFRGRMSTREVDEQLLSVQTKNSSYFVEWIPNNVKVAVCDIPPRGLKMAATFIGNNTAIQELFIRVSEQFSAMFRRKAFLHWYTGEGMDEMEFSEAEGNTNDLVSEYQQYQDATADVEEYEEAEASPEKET

Tests used:
CeTb, colchicine site = CeTb, colchicine site (Gallus gallus, UniProt P09207); experiment: Single-point MDL competitive binding inhibition screen, erythrocyte tubulin
[1] = biological target: Erythrocyte tubulin (CeTb), colchicine site (Gallus gallus, UniProt P09207); experiment: biochemical; format: binding, chicken (Gallus gallus)
[2] = Erythrocyte tubulin (CeTb) Kd (Table 4, selected drugs)

Compound | Kd (CeTb, colchicine site; read-out: CeTb Kd(app), from single-point data (50 µM drug) fitted with single-site isotherm, Eq. 4) | Kd (CeTb, colchicine site) | ratio in Kd(app), CeTb vs BTb (CeTb, colchicine site; single-point screen) | IC50 [1] | Kd ([1]; Erythrocyte tubulin (CeTb) Kd) | Kd [1, 2]
COc1ccc(/C=C\c2cc(OC)c(OC)c(OC)c2)cc1O [CS-A4 trans, combretastatin-A4 (trans)] | 228 µM | – | – | – | – | –
COc1ccc(S(=O)(=O)Nc2cccnc2Nc2ccc(O)cc2)cc1 [ABT-751] | – | 124 µM | – | – | – | –
COc1cc2c(c(N)c1OC)C(=O)/C(=C\c1cc(C)c(O)c(C)c1)C2 [Indanocine] | – | 16 µM | ca. 4.5 fold | – | – | –
COC(=O)Nc1nc2ccc(C(=O)c3cccs3)cc2[nH]1 [Nocodazole] | – | 0.68 µM | – | 1.5 ± 0.11 µM | 0.51 ± 0.036 µM | 0.6 µM
COc1ccc(NS(=O)(=O)c2c(F)c(F)c(F)c(F)c2F)cc1F [T138067 (Batabulin), Batabulin] | – | 415 µM | – | – | – | –
COc1ccc(/C=C\c2cc(OC)c(OC)c(OC)c2)cc1O [Combretastatin A4, cis-Combretastatin A4] | – | 9.5 µM | – | 20 ± 1.2 µM | 5.7 ± 0.32 µM | 5.7 µM
